For this assay, the target named is T1, Human NPY1 Receptor (Homo sapiens, UniProt P25929).
T1 construct: expressed in transfected cells; host or cells: SK-N-MC human neuroblastoma cells
In words: NPY cAMP method: effect on EC50 of NPY-induced inhibition of forskolin-stimulated cAMP production in SK-N-MC cells. Conditions: NPY alone, 10 μM forskolin. The class given is cell-based.

Protein sequences, listed by entry. Tags and fused reporters are not part of them.
UniProt P25929, whole entry: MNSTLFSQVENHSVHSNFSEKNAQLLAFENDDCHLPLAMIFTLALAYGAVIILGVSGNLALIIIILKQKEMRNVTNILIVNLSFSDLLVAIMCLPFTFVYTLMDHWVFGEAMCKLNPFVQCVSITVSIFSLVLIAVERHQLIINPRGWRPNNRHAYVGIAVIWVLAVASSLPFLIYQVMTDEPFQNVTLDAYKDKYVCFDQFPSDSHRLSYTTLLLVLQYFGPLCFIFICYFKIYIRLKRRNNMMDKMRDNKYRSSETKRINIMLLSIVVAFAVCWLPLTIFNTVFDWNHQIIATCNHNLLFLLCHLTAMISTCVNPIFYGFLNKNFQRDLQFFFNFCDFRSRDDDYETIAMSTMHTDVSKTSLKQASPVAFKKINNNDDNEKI

As usually defined, the EC50 is the concentration giving half of the maximal effect. Higher therefore signals weaker potency. Take “NPY: Neuropeptide Y (NPY), involved in the control of feeding in mammals; agonist in the cAMP assay”: the EC50 is 300 pM.
